Reference: US4183910A, “Method for testing to predict and/or diagnose allergy to penicillins, and compounds and compositions for use in such tests” (priority 1978, dated 1980)

System: patients known to give positive skin test to penicillin derivatives
Assay: Intradermal skin test with BPO-amines and other penicillin allergy skin test materials (Table II)
Type: in vivo, human
Text: Benzylpenicilloyl-polylysine (BPL) was a heterogeneous PPL preparation averaging benzylpenicilloyl7 -polylysine9 (B7 L9) at 1×10^-6 M concentration of the conjugate in tris-buffered saline at pH 8.2.
Benzylpenicillin (PG) was 1.0×10^-2 M in 0.11M saline.
Sodium benzylpenicilloate plus sodium benzylpenilloate (P/P) was 1.0×10^-2 M of each dissolved in phosphate buffered saline at pH 7.5.
Benzylpenicilloyl-amine (BPO-amine) was 1.0×10^-2 M concentration phosphate buffered saline at pH 7.5.
Benzylpenicilloyl-n-propyl amine and benzylpenicilloyl-n-ethyl amine (as α-diastereoisomers) were each dissolved to 1.0×10^-2 M concentration in phosphate buffered saline at pH 7.5.
There were nine patients known to give positive skin test to penicillin derivatives. They were healthy men and women ranging in age from 23 to 56 years. Ten people negative to the skin test materials served as controls.
Using 1.0 ml tuberculin syringes with #26 needles and intradermal bevels, 0.01 ml volumes of the test materials were injected intradermally into the anterior-lateral aspects of the arms. Skin tests were read in 15 minutes. A negative reaction is the poorly outlined bleb of fluid --1-3 mm in diameter without surrounding erythema. Positive tests were sharply outlined wheals of 4-20 mm diameter with surrounding erythema. The positive tests were graded as 1+,2+,3+ and 4+ on the basis of wheal diameter. 1+=4-6 mm; 2+=7-9 mm; 3+=10-12 mm; and 4+=more than 13 mm with pseudopods. The stronger reactionshad wider circles of surrounding erythema which were more intensely red. Skin tests were done in duplicate. Duplicates gave identical or nearly identical readings.

**Q.** How did the “Intensity of reactions in patients: patient gamma” value (patient eight, intradermal 0.01 ml, read in 15 minutes, BPL 1 × 10^-6 M, other materials 1 × 10^-2 M) turn out when Benzylpenicilloyl-polylysine [BPL] was run?
**A.** 4+ (4+=more than 13 mm with pseudopods)

**Q.** And the “Intensity of reactions in patients: patient eta” value (patient five, intradermal 0.01 ml, read in 15 minutes, BPL 1 × 10^-6 M, other materials 1 × 10^-2 M)?
**A.** 0 (A negative reaction is the poorly outlined bleb of fluid --1-3 mm in diameter without surrounding erythema)

**Q.** What about the “Intensity of reactions in patients: patient alpha” value (patient four, intradermal 0.01 ml, read in 15 minutes, BPL 1 × 10^-6 M, other materials 1 × 10^-2 M) of the same substance?
**A.** 0 (A negative reaction is the poorly outlined bleb of fluid --1-3 mm in diameter without surrounding erythema)

**Q.** And the “Skin test reaction of patient four, in words” value (patient four, text summary of Table II)?
**A.** entirely negative

**Q.** What about the “Intensity of reactions in patients: patient iota” value (patient nine, intradermal 0.01 ml, read in 15 minutes, BPL 1 × 10^-6 M, other materials 1 × 10^-2 M) of the same substance?
**A.** 1+ (1+=4-6 mm)

**Q.** And the “Intensity of reactions in patients: patient zeta” value (patient one, intradermal 0.01 ml, read in 15 minutes, BPL 1 × 10^-6 M, other materials 1 × 10^-2 M)?
**A.** 1+ (1+=4-6 mm)

**Q.** What about the “Intensity of reactions in patients: patient epsilon” value (patient seven, intradermal 0.01 ml, read in 15 minutes, BPL 1 × 10^-6 M, other materials 1 × 10^-2 M) of the same substance?
**A.** 4+ (4+=more than 13 mm with pseudopods)

**Q.** And the “Intensity of reactions in patients: delta” value (patient six, intradermal 0.01 ml, read in 15 minutes, BPL 1 × 10^-6 M, other materials 1 × 10^-2 M)?
**A.** 4+ (4+=more than 13 mm with pseudopods)

**Q.** And the “Intensity of reactions in patients: beta” value (patient three, intradermal 0.01 ml, read in 15 minutes, BPL 1 × 10^-6 M, other materials 1 × 10^-2 M)?
**A.** 0 (A negative reaction is the poorly outlined bleb of fluid --1-3 mm in diameter without surrounding erythema)

**Q.** And the “Intensity of reactions in patients: theta” value (patient two, intradermal 0.01 ml, read in 15 minutes, BPL 1 × 10^-6 M, other materials 1 × 10^-2 M)?
**A.** 3+ (3+=10-12 mm)
